Laboratory results reported in patent publication US5252463A, “Clipsin, a chymotrypsin-like protease and method of using same” (The Du Pont Merck Pharmaceutical Company, priority 1990, dated 1993).

Biological target: T1, rat brain clipsin (Rattus norvegicus, UniProt P09650)
T1 sequence (P09650 21-260): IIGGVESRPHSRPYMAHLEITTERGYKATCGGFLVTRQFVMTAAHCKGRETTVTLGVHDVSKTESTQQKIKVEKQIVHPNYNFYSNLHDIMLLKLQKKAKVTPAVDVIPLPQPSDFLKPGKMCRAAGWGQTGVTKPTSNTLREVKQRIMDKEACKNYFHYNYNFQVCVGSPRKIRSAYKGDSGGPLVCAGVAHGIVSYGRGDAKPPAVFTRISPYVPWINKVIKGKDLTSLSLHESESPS

Compound: N=C(N)NCCC[C@H](NC(=O)c1ccccc1)C(=O)Nc1ccc([N+](=O)[O-])cc1 [Bz-Arg-p-nitroanilide]
- Hydrolysis of the substrate by clipsin (in words): detectable hydrolysis only with the last substrate
